Results taken from US6472396B1, “Barbituric acid derivatives, processes for their production and pharmaceutical agents containing these compounds” (Roche Diagnostics GmbH, priority 1995, dated 2002).

Sequences of proteins named here, by UniProt entry; tags and fusion partners are left off. Residues count along the entry.
UniProt P22894, 100-262 limits assumed: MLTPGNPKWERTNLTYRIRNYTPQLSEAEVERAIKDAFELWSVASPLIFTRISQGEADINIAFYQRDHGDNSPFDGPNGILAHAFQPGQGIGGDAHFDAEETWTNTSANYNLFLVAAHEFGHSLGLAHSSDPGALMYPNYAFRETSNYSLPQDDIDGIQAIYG

Biological target: T1, MMP-8 (Homo sapiens, UniProt P22894)
T1 construct: catalytic domain (Met80-Gly242) of human neutrophil collagenase; made in house
Assay: Inhibition of MMPs (HNC catalytic domain), fluorogenic heptapeptide substrate DNP-Pro-Leu-Gly-Leu-Trp-Ala-D-Arg-NH2
Type: biochemical
Conditions: MMP-8 (catalytic domain of human neutrophil collagenase), 25° C.
Experimental: In order to determine the inhibition of MMPs, for example HNC, the catalytic domain (isolation and purification see for example Schnierer, S., Kleine, T., Gote, T., Hillemann, A., Knäuper, V., Tschesche, H., Biochem. Biophys. Res. Commun. (1993) 191, 319-326) is incubated with inhibitors having various concentrations. Subsequently, the initial reaction rate in the conversion of a standard substrate is measured in a manner analogous to Grams F. et al., FEBS 335 (1993) 76-80).
The results are evaluated by plotting the reciprocal reaction rate against the concentration of the inhibitor. […]
The synthetic collagenase substrate is a heptapeptide which is coupled, at the […], with DNP (dinitrophenol). Said DNP residue quenches by steric hindrance the fluorescence of the adjacent tryptophane of the heptapeptide. After cleavage of a tripeptide which includes the DNP group, the tryptophane fluorescence increases. The proteolytic cleavage of the substrate therefore can be measured by the fluorescence value.
The assay was performed at 25° C. in a freshly prepared 50 mM Tris buffer (pH 8.0) treated with dithiozone to remove traces of heavy metals. […] Enzyme concentrations were determined by uv measurements (ε280=2.8 10^4 M1 cm^−1, ε288: 2.2 10^4 M^−1 cm^−1) and the stock solutions were stored in the cold. […] Substrate hydrolysis was monitored for 10 min. immediately after adding the enzyme. […]

5-(4′-Biphenyl)-5-[N-(2-hydroxyethyl)piperazinyl]barbituric Acid [example 25]
IC50: 140 nM
